Changes are numbered by the printed parent chain.
Columns and labels:
GlyT2 I292C mutant = target: T1, GlyT2 I292C mutant (Rattus norvegicus, UniProt P58295, I292C); assay: [3H]glycine transport by GlyT2 mutant in COS7 cells; format: cell-based
T1 construct: expressed in transfected cells; host or cells: COS7
T1 sequence (P58295 1-799 I292C): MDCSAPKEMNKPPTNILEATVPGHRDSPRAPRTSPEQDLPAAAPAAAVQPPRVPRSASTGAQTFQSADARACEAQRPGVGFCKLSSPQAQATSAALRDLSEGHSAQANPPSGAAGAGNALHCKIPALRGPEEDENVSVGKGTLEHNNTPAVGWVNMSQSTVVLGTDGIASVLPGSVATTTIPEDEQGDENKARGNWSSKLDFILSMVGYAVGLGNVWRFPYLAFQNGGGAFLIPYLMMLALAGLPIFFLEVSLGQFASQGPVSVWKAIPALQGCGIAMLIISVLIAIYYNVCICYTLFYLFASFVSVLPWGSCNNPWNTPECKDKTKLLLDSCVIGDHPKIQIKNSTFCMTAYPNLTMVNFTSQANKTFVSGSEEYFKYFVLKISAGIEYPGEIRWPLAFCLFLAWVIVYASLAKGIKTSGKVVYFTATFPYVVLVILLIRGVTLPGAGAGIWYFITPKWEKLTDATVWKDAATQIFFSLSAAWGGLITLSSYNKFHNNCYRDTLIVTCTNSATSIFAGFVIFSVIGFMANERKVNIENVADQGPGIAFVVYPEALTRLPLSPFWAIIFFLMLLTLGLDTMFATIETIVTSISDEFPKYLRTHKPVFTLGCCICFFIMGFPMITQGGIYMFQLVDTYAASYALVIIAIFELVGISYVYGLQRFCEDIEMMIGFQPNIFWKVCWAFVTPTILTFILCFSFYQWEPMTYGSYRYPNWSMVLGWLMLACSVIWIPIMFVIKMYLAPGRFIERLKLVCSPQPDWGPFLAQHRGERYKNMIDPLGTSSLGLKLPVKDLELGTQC

GlyT2 S481G mutant = target: T2, GlyT2 S481G mutant (Rattus norvegicus, UniProt P58295, S481G); assay: as above; format: cell-based
T2 construct: expressed in transfected cells; host or cells: COS7
T2 sequence (P58295 1-799 S481G): T1 sequence (P58295 1-799 I292C) with C292I, S481G

Work on `NCC(=O)O` [Gly, glycine] yielded an EC50 (GlyT2 I292C mutant) of 176 ± 15 µM and an EC50 (GlyT2 S481G mutant) of 149 ± 11 µM.

— PMC8691691 (ACS Chemical Neuroscience, 2021)
